Species: Homo sapiens
Experiment: Selectivity index, ratio of IC50 for human recombinant MAOA to IC50 for human recombinant MAOB

Row | Ratio IC50 | Structure (SMILES)
1 | < 0.014 | CCCCCC/C(C)=N/Nc1nc(-c2cccc(OC)c2)cs1
2 | < 0.036 | COc1cccc(-c2csc(N/N=C/c3cccc4ccccc34)n2)c1
